Each structure is given as a SMILES string. Where “and” joins values, the source holds several entries; their conditions need not be identical. Equal entries are not always repeated. Only a part is listed here, and it is no random draw.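 Each cell line was grown in a 96-well plate and treated with one concentration of compound for 48 hours. Values below 10 were considered active.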 Some salts and complexes are drawn in separate pieces, as the source files them; their charges need not balance. Calls of active or inactive are those of the source.

The first assay deals with HOP-92 NSCLC. Put plainly: NCI-60 one-dose screen, 48 h (100 = growth as untreated, 0 = no growth, -100 = all killed). The settings on record: 10 µM.
Consider `COc1ccc(C(O)(C(=O)OCCN2CCCCC2)c2ccc(OC)cc2)cc1`, for which the growth is inactive: 84.5%.

For the molecule `Cc1c([N+](=O)[O-])c(C)c([N+](=O)[O-])c(C)c1[N+](=O)[O-]`, the growth was inactive: 103%.

With `O=C(OCCN1CCCCCCCC1)C(O)(c1ccccc1)c1ccccc1`, the growth was inactive: 96.7%.

In the case of `CN/C(N)=N/[N+](=O)[O-]`, the growth was inactive: 86.7%.

In the case of `CCOC(=O)Nc1c([N+](=O)[O-])cc([N+](=O)[O-])cc1[N+](=O)[O-]`, the growth is inactive: 97%.

`O=[N+]([O-])c1cc([N+](=O)[O-])c(Nc2nnnn2CCO)c([N+](=O)[O-])c1`: the growth was inactive: 105%.

For `Cc1c([N+](=O)[O-])cc([N+](=O)[O-])c(Br)c1[N+](=O)[O-]`, the growth was inactive: 98.8%.

Consider `CN1CCN(CCOC(=O)C(O)(c2ccccc2)c2ccccc2)CC1`, for which the growth is inactive: 105%.

For `O=[N+]([O-])c1cc([N+](=O)[O-])c(O)c([N+](=O)[O-])c1.c1ccc([I+]c2ccccc2)cc1`, the growth is inactive: 37.4%.

Turning to `Nc1cc([N+](=O)[O-])cc([N+](=O)[O-])c1O`, the growth was inactive: 91.8% and inactive: 87.4%.

Take `CC(C)N1CCN(CCOC(=O)C(O)(c2ccccc2)c2ccccc2)CC1`: the growth is inactive: 95.6%.

In the case of `CC(C)N(CCCl)C(C)C`, the growth is inactive: 93.9%.

For `O=[N+]([O-])OCCOc1ccc([N+](=O)[O-])cc1[N+](=O)[O-]`, the growth is inactive: 93.7%.

On to `O=[N+]([O-])N(CCOC(N(F)F)(N(F)F)N(F)F)CC([N+](=O)[O-])([N+](=O)[O-])[N+](=O)[O-]`, for which the growth is inactive: 109%.

On to `NN/C(N)=N/[N+](=O)[O-]`, for which the growth was inactive: 104%.

The subject of another assay is NCI-H522 lung. The assay is described as above. The following applies: 10 µM.
For `CCCOP(=S)(Cl)OCCC`, the growth was inactive: 98.8%.

For `CN(C)CCS`, the growth is inactive: 109% and inactive: 101%.

As for `O=C(O)C1(O)c2ccccc2-c2ccccc21`, the growth is inactive: 59.2% and inactive: 88.7%.

`Nc1cccc(Cl)c1.O=[N+]([O-])c1cc([N+](=O)[O-])c(O)c([N+](=O)[O-])c1`: the growth was inactive: 106%.

As for `OCCSCCO`, the growth was inactive: 114%.

As for `Nc1cc([As](Cl)Cl)cc(N)c1O`, the growth is inactive: 21.3%.

Turning to `O=[N+]([O-])N(CCN(CC(Br)([N+](=O)[O-])[N+](=O)[O-])[N+](=O)[O-])CC(Br)([N+](=O)[O-])[N+](=O)[O-]`, the growth was inactive: 96.4%.

For `O=C1N([N+](=O)[O-])CCN1[N+](=O)[O-]`, the growth was inactive: 106%.

For the molecule `CC[N+]([O-])(CC)Cc1ccccc1.O=[N+]([O-])c1cc([N+](=O)[O-])c(S(=O)(=O)O)c([N+](=O)[O-])c1`, the growth was inactive: 118%.

Consider `CP(=O)(OCCCl)N(CCCl)CCCl` (centres undefined), for which the growth was inactive: 60.8%.

Turning to `CN(CCO)CCCl.O=[N+]([O-])c1cc([N+](=O)[O-])c(O)c([N+](=O)[O-])c1`, the growth was inactive: 86%.

Take `CCN(CC)CCOC(=O)C(O)(c1ccccc1)c1cc(C)c(C)c(C)c1C` (centres undefined): the growth is inactive: 96.4%.

Regarding `CCN(CC)CCOC(=O)C(O)(c1ccccc1)c1cc(C)cc(C)c1C` (centres undefined), the growth was inactive: 92.6%.

Take `CCN(C)CC.O=[N+]([O-])c1cc([N+](=O)[O-])c(O)c([N+](=O)[O-])c1`: the growth is inactive: 79.4%.

As for `O=C(Cl)c1c([N+](=O)[O-])cc([N+](=O)[O-])cc1[N+](=O)[O-]`, the growth was inactive: 35.6%.

Turning to `COc1ccc(C(O)(C(=O)OCCN2CCCCC2)c2ccc(OC)cc2)cc1`, the growth was inactive: 87%.

On to `Cc1c([N+](=O)[O-])c(C)c([N+](=O)[O-])c(C)c1[N+](=O)[O-]`, for which the growth was inactive: 112%.

With `O=C(OCCN1CCCCCCCC1)C(O)(c1ccccc1)c1ccccc1`, the growth was inactive: 90.7%.

`CN/C(N)=N/[N+](=O)[O-]`: the growth was inactive: 97.4%.

Consider `CCOC(=O)Nc1c([N+](=O)[O-])cc([N+](=O)[O-])cc1[N+](=O)[O-]`, for which the growth is inactive: 67.3%.

For the molecule `O=[N+]([O-])c1cc([N+](=O)[O-])c(Nc2nnnn2CCO)c([N+](=O)[O-])c1`, the growth is inactive: 90.8%.

As for `Cc1c([N+](=O)[O-])cc([N+](=O)[O-])c(Br)c1[N+](=O)[O-]`, the growth was active: -78.9%.

Regarding `CN1CCN(CCOC(=O)C(O)(c2ccccc2)c2ccccc2)CC1`, the growth was inactive: 102%.

Turning to `O=[N+]([O-])c1cc([N+](=O)[O-])c(O)c([N+](=O)[O-])c1.c1ccc([I+]c2ccccc2)cc1`, the growth is inactive: 67.7%.

The values above are taken from PubChem BioAssay (NCI).
